One assay addresses galectin-3 (Homo sapiens, UniProt P17931). Briefly: Galectin-3 ELISA assay (inhibition of galectin-3 binding to Galβ1-3GlcNAc polymer). As to conditions: read-out: ELISA IC50 (Galectin-3 Antagonist Activity), Galβ1-3GlcNAc polymer on streptavidin-coated plate, 1.5 hours at room temperature. The text has this:
An inhibition assay may be used to screen for antagonists of galectin-3. For example, an assay may be performed to characterize the capability of a compound described herein to inhibit interaction of galectin-3 with a Galβ1-3GcNAc carbohydrate structure. The inhibition assay may be a competitive binding assay, which allows the determination of IC50 values. By way of example, a Galβ1-3GlcNAc polymer may be immobilized onto a matrix; a composition may be added to reduce nonspecific binding; the immobilized Galβ1-3GlcNAc polymer may be contacted with the candidate compound in the presence of galectin-3 group under conditions and for a time sufficient to permit galectin-3 to bind to the immobilized Galβ1-3GlcNAc polymer; the immobilized Galβ1-3GlcNAc polymer may be washed; and the amount of galectin-3 bound to the immobilized Galβ1-3GlcNAc polymer may be detected. Variations of such steps can be readily and routinely accomplished by a person of ordinary skill in the art.
Galectin-3 antagonists were evaluated for their ability to inhibit binding of galectin-3 to a Galβ1-3GlcNAc carbohydrate structure. The detailed protocol was as follows. A 1 ug/mL suspension of a Galβ1-3GlcNAcβ1-3Galβ1-4GlcNAcβ-PAA-biotin polymer (Glycotech, catalog number 01-096) was prepared. […] The absorbance at 450 nm (A450) was measured using a FlexStation 3 plate reader (Molecular Devices). […]

Sequences of proteins named here, by UniProt entry; tags and fusion partners are left off.
UniProt P17931, whole entry: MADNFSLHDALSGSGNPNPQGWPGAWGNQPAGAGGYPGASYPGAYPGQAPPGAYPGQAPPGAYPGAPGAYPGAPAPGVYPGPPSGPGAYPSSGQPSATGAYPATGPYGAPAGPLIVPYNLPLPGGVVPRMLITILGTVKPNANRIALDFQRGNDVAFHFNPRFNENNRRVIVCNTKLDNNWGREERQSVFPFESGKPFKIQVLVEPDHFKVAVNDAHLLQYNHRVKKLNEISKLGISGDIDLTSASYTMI

Another assay deals with E-selectin. Briefly: E-selectin competitive binding assay (ELISA; inhibition of sLe^a binding to immobilized E-selectin/Ig chimera). As to conditions: read-out: ELISA IC50 (E-Selectin Antagonist Activity), biotinylated sLe^a polyacrylamide with streptavidin/HRP, 2 hours at room temperature. The text has this: An inhibition assay may be used to screen for antagonists of E-selectin. For example, an assay may be performed to characterize the capability of a compound described herein to inhibit (i.e., reduce, block, decrease, or prevent in a statistically or biologically significant manner) interaction of E-selectin with sLe^a or sLe^x. The inhibition assay may be a competitive binding assay, which allows the determination of IC50 values. By way of example, E-selectin/Ig chimera may be immobilized onto a matrix (e.g., a multi-well plate, which may be made from a polymer, such as polystyrene; a test tube, and the like); a composition may be added to reduce nonspecific binding (e.g., a composition comprising non-fat dried milk or bovine serum albumin or other blocking buffer routinely used by a person skilled in the art); the immobilized E-selectin may be contacted with the candidate compound in the presence of sLe^a comprising a reporter group under conditions and for a time sufficient to permit sLe^a to bind to the immobilized E-selectin; the immobilized E-selectin may be washed; and the amount of sLe^a bound to immobilized E-selectin may be detected. Variations of such steps can be readily and routinely accomplished by a person of ordinary skill in the art. […]
On the technique in general: An ELISA detects its analyte on a solid surface through an enzyme-linked reagent.

Structures are written as SMILES.

On to `CCC1CC(C(=O)NCCNC(=O)C2CC(OC3OC(CO)C(O)C(n4cc(-c5cccc(F)c5)nn4)C3O)C(O)C(n3cc(-c4cccc(F)c4)nn3)C2)CC(OC2OC(CO)C(O)C(OC(CC3CCCCC3)C(=O)N3CCC3)C2NC(C)=O)C1OC1OC(C)C(O)C(O)C1O` (centres unmarked), for which the IC50 is 0.11 µM at galectin-3 and 0.78 µM in the assay on E-selectin.
